By UniProt entry, the sequences of proteins in these tests, tags left out.
UniProt P21453, whole entry: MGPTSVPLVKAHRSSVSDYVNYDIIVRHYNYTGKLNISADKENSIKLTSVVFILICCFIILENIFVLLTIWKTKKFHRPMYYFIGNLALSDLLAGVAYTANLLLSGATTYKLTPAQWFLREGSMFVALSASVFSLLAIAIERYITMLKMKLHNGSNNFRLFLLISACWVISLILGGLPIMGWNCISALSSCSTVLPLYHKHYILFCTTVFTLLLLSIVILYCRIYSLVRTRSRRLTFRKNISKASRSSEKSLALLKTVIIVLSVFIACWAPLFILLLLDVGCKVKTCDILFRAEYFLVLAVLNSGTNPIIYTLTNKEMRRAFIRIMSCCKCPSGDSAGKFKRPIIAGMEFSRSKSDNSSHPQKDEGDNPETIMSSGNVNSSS

In patent publication US8835470B2, “Mandelamide heterocyclic compounds” (Bristol-Myers Squibb Company, priority 2010, dated 2014):

Assays:
[1] = biological target: T1, S1P1 (Homo sapiens (Human), UniProt P21453); assay: Receptor [35S] GTPγS Binding Assay, S1P1; format: biochemical; details: membranes from S1P1/CHO cells; [35S]GTP
Description: Receptor [35S] GTPγS Binding Assays
Membranes prepared from S1P1/CHO cells or EDG3-Ga15-bla HEK293T cells were added to the compound plate (40 μl/well, final protein 3 μg/well) with MULTIDROP®. [^35S]GTP (1250 Ci/mmol, Perkin Elmer) was diluted in assay buffer: 20 mM HEPES, pH7.5, 10 mM MgCl2, 150 mM NaCl, 1 mM EGTA, 1 mM DTT, 10 μM GDP, 0.1% fatty acid free BSA, and 10 μg/ml Saponin to 0.4 nM. 40 μl of the [^35S] GTP solution was added to the compound plate with a final concentration of 0.2 nM. The reaction was kept at room temperature for 45 min. At the end of incubation, all the mixtures in the compound plate were transferred to a 384 well FB filter plates via GPCR robot system. The filter plate was washed with water 4 times by using the modified manifold Embla plate washer and dried at 60° C. for 45 min. 30 μl of MicroScint 20 scintillation fluid was added to each well for counting at Packard TOPCOUNT®.
A larger value for the GTPγS S1P3 EC50 value indicated less activity in the GTPγS S1P3 binding assay.

[2] = biological target: T1, S1P1; assay: S1P1 Binding Assay; details: membranes from CHO cells expressing human S1P1; 33P-S1P ligand; rounded to two digits
Description: Membranes were prepared from CHO cells expressing human S1P1. Cells were dissociated in buffer containing 20 mM HEPES, pH 7.5, 50 mM NaCl, 2 mM EDTA and Protease Inhibitor cocktail (Roche), and disrupted on ice using the Polytron homogenizer. The homogenate was centrifuged at 20,000 rpm (48,000 G) and the supernatant was discarded. The membrane pellets were resuspended in buffer containing 50 mM HEPES, pH 7.5, 100 mM NaCl, 1 mM MgCl2, 2 mM EDTA and stored in aliquots at −80° C. after protein concentration determination. Membranes (2 μg/well) and 0.03 nM final concentration of ^33P-S1P ligand (1 mCi/ml, American Radiolabeled Chemicals) were added to the compound plates. Binding was performed for 45 minutes at room temperature, terminated by collecting the membranes onto GF/B filter plates, and radioactivity was measured by TOPCOUNT®. The competition data of the test compounds over a range of concentrations was plotted as percentage inhibition of radioligand specific binding. The IC50 is defined as the concentration of competing ligand needed to reduce specific binding by 50%.
Table A below lists S1P1 Binding IC50 values from the following examples of this invention measured in the S1P1 binding assay described hereinabove. The results in Table A were rounded to two digits.

Work on O=C(NC1CCC1)C(O)c1ccc(-c2noc(-c3onc(-c4ccccc4)c3C(F)(F)F)n2)cc1 (racemic) [Example 116, (R/S)-N-Cyclobutyl-2-hydroxy-2-(4-(5-(3-phenyl-4-(trifluoromethyl)isoxazol-5-yl)-1,2,4-oxadiazol-3-yl)phenyl)acetamide] yielded an EC50 [1] of 162 nM and an IC50 [2] of 43 nM.
